2 compounds from patent US20260382690A1, “Dual-Domain Peptide for Depleting HMGB1 from the Circulation via Liver HSPG System” (published 2026) can be followed below.

The test system of this assay is eNOS-dependent vasodilation, facialis arteries. Nature of the assay: eNOS-dependent vasodilation (area between curves ± L-NAME) of facialis arteries from treated SS mice. Particulars: 3 weeks, ± L-NAME 100 μM. Here is the method: Effects of hE-HMGB1-BP on vasodilation, eNOS-dependent vasodilation, and plasma HMGB1. Townes SS mice were treated daily with hE-HMGB1-BP (Biomatik Corp., Kitchener, Ontario; 2.72 mg/kg/d, subcutaneous injection) for three weeks. On the day of the vasodilation studies, mice were anesthetized with isoflurane (1-3%), subjected to thoracotomy, and euthanized by exsanguination. A hypodermic needle was inserted into the heart's right side, and blood was drawn into EDTA. Plasma was separated by centrifugation. The plasma was divided into aliquots and stored at −80 °C until analysis for HMGB1 using ELISA kits from Tecan (30164033, Männedorf, Switzerland) as described. Facialis arteries were isolated by microdissection, cannulated, and pressurized to 60 mmHg. Changes in vasodilation of (5Z)-7-[(1R,4S,5S,6R)-6-[(1E,3S)-3-hydroxy-1-octenyl]-2-oxabicyclo[2.2.1]hept-5-yl]-5-heptenoic acid (U46619)-preconstricted, pressurized facialis arteries were determined by video microscopy in response to acetylcholine (Ach) (10-7-10-4 M) as before. After determining vasodilation in the absence of N(G)-nitro-L-arginine methyl ester (L-NAME), the bath's MOPS physiological buffer [CaC12 2H2O (2.0 mM), EDTA (0.02 mM), glucose (5.0 mM), KCl (4.7 mM), MgSO4·7H2O (1.17 mM), MOPS (3.0 mM), NaCl (145 mM), NaH2PO4OH2O (1.2 mM), pyruvic acid (2.0 mM)] was replaced with 37 °C MOPS physiological buffer containing L-NAME (100 μM) and Ach-induced relaxation responses determined once again, as above. eNOS-dependent vasodilation was determined from the area between curves (ABC). The area between vasodilation curves in the absence and presence of L-NAME was calculated using the area under the curve function in Prism GraphPad 9.5.0 after correction of paired data for negative relaxation responses. […]
Effects of inhibiting GSNOR on vasodilation in SS mice. […] Relaxation responses to Ach (10-7 to 10 4 M) were determined in MOPS physiological buffer in the absence and presence of L-NAME by video microscopy as described. […]

On to `CC[C@H](C)[C@H](NC(=O)CNC(=O)[C@H](CCCCN)NC(=O)[C@@H](NC(=O)[C@H](CC(=O)O)NC(=O)[C@H](Cc1ccccc1)NC(=O)[C@H](CC(N)=O)NC(=O)[C@H](CC(N)=O)NC(=O)[C@H](C)NC(=O)[C@H](CO)NC(=O)[C@H](Cc1c[nH]cn1)NC(=O)[C@H](C)NC(=O)CNC(=O)CNC(=O)[C@H](CCCNC(=N)N)NC(=O)[C@H](CC(C)C)NC(=O)[C@H](CC(C)C)NC(=O)[C@H](CCCNC(=N)N)NC(=O)[C@H](CCCCN)NC(=O)[C@H](CCCNC(=N)N)NC(=O)[C@H](CC(C)C)NC(=O)[C@H](CCCCN)NC(=O)[C@H](CCCNC(=N)N)NC(=O)[C@H](CC(C)C)NC(C)=O)C(C)C)C(N)=O`, for which the “eNOS-dependent vasodilation (ABC)” value (2.72 mg/kg/d, subcutaneous, mean±SD, SS+PBS 24.7±15.4, AA 83.2±37.7) is on record as 90.5±19.3 arbitrary units. On to `CC(=O)N[C@@H](CCCCN)C(=O)N[C@@H](Cc1ccc(O)cc1)C(=O)N[C@@H](CS)C(N)=O`, for which the “eNOS-dependent vasodilation (in words)” value (SS mice, KYC 3 mg/kg/d or N6022 1 mg/kg/d in PBS with 1% DMSO) is reported as “improved eNOS-dependent vasodilation”.
